From US4238566A (priority 1980, dated 1980)

The chains behind the UniProt entries cited, without tags or fusion partners.
UniProt P80457, whole entry: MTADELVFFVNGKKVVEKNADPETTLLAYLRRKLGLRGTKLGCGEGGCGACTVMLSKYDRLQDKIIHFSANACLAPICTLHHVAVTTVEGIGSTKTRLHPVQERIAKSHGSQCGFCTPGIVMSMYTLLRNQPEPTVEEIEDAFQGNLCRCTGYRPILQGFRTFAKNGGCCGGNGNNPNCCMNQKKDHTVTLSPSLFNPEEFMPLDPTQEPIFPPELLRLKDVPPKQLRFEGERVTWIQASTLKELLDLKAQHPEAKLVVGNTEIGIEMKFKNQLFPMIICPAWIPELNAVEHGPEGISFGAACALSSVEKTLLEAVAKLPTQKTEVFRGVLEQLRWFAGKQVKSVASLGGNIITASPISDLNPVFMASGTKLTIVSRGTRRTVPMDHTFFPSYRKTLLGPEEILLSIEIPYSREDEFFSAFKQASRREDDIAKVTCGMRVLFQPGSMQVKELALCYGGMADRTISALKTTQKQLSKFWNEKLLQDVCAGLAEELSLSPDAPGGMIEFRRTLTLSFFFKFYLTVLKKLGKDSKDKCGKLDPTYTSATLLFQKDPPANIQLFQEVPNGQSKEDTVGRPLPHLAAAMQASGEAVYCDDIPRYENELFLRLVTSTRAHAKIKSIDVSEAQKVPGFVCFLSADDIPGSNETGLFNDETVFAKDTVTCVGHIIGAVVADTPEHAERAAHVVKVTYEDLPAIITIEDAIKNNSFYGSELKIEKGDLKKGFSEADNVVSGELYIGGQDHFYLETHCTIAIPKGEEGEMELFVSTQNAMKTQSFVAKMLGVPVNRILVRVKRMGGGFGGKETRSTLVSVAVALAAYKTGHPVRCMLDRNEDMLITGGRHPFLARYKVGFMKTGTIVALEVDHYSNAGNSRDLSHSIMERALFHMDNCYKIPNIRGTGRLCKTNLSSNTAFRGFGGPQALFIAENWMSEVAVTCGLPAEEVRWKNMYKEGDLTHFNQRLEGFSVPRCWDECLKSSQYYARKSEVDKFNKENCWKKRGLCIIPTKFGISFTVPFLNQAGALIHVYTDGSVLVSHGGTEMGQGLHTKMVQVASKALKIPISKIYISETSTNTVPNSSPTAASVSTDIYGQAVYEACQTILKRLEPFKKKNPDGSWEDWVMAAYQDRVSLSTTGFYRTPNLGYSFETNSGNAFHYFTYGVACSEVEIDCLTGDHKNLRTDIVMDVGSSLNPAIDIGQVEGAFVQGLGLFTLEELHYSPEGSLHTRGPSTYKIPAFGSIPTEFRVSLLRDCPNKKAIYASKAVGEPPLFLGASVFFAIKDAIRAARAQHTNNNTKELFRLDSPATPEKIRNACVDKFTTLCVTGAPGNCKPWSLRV

Columns and labels:
Type in all cases: biochemical
Settings in all cases: read-out: KI with pterin-6-carboxylic acid
[1] = biological target: T1, Bovine milk xanthine oxidase (E.C. 1.2.3.2.), XO concentrate by prior art 1 (Horecker and Heppel 1955), E280/E450 ratio 6.1 (Bos taurus, UniProt P80457); test: Kinetic parameters (Km, Vmax, KI) of XO concentrate prepared by prior art method of Horecker and Heppel
T1 construct: Bovine milk XO was purified using three different methods; from tissue; host or cells: bovine milk (purified in-house by the method of Horecker and Heppel 1955)
Protocol: (§1) Bovine milk XO was purified using three different methods and the purified XO enzyme concentrate preparation from each method was assayed for its kinetic parameters.
(§2) The first method used was that of Horecker and Heppel (Methods in Enzymology, Vol. 2, pp. 482-485, 1955). […] The second method was that of Waud et al. (Arch. Biochem. and Biophys., Vol. 169, pp. 695-701, 1975). […] The third method was that described above for the preparation of the XO concentrate of this invention.
(§3) The concentration of the substrate was varied over a gradient of initial concentrations of one to nine millimolar. […] Three replicates of each assay were performed at each concentration of substrate. Buffer pH was monitored constantly and the percent oxygen saturation was maintained at approximately 75%. Lineweaver-Burk and Hanes plots were then constructed from the collected data.
(§4) Lineweaver-Burk and Hanes plots were constructed from the data and both Km and Vmax determined therefrom.
(§5) Experimental conditions for this part of the study were similar to the preceding experiments. […] From the collected data, Lineweaver-Burk plots for competitive inhibition were constructed.

[2] = biological target: T2, Bovine milk xanthine oxidase (E.C. 1.2.3.2.), XO concentrate by prior art 2 (Waud et al. 1975), E280/E450 ratio 4.8 (Bos taurus, UniProt P80457); test: Kinetic parameters (Km, Vmax, KI) of XO concentrate prepared by prior art method of Waud et al.
T2 construct: Bovine milk XO was purified using three different methods; from tissue; host or cells: bovine milk (purified in-house by the method of Waud et al. 1975)
Protocol: as §1, §2, §3, §4, §5

[3] = biological target: T3, Bovine milk xanthine oxidase (E.C. 1.2.3.2.), XO concentrate of this invention, E280/E450 ratio 2.0 to 4.1 (Bos taurus, UniProt P80457); test: Kinetic parameters (Km, Vmax, KI) of XO concentrate of this invention
T3 construct: Bovine milk XO was purified using three different methods; from tissue; host or cells: bovine milk (purified in-house by the method of the invention)
Protocol: as §1, §2, §3, §4, §5

- Ki [1]: 1.5 µM
- Ki [2]: 1.45 µM
- Ki [3]: 1 µM
SMILES: Nc1nc2ncc(C(=O)O)nc2c(=O)[nH]1 [pterin-6-carboxylic acid]
